These are literature values, as cited in patent publication US7326685B2, “Diagnostic or therapeutic somatostatin or bombesin analog conjugates and uses thereof” (The Administrators of the Tulane Educational Fund, priority 2001, dated 2008).

The conditions of the series: in vivo; cited from earlier work.

Consider mitomycin C, for which the MTD is reported as 20 mg/m^2.
